Experiments:
[1] = target: binary complex of biotinylated PPP1R15A^533-624 and PP1 (UniProt O75807)
[2] = target: binary complex of biotinylated PPP1R15A^(533-624)R578A and PP1 (UniProt O75807)

## G-actin (from UniProt P68135 1-377) (natural protein)
[1]
  EC50 of G-actin for the initial velocity of eIF2α-P dephosphorylation (PPP1R15A^533-624 50 nM, PP1 0.625 nM): 0.013 µM
[2]
  EC50 of G-actin for eIF2α-P dephosphorylation with PPP1R15A^(533-624)R578A [100 nM]: 0.02 µM
